Test results: PubChem BioAssay AID1194 (EPA DSSTox, 2008)
Activity calls are given as the source filed them.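 Rule for the calls: active = chemicals rated mutagenic or weakly mutagenic in the Salmonella bacterial test by one literature review, or positive overall by another; inconclusive = no clear call, values can overlap the other calls; inactive = the rest.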 Where a call stands in place of a potency, no number is given.

System: Salmonella typhimurium Ames mutagenicity, literature compiled
Experiment: DSSTox (CPDBAS) Carcinogenic Potency Database Salmonella Mutagenicity
From the text: The Carcinogenic Potency Database (CPDB) is a unique and widely used international resource of the results of over 6500 chronic, long-term animal cancer tests on over 1500 chemical substances. The CPDB provides easy access to the bioassay literature, with qualitative and quantitative analyses of both positive and negative experiments that have been published over the past 50 years in the general literature and by the National Cancer Institute/National Toxicology Program. The CPDB standardizes the diverse literature of cancer bioassays that vary widely in protocol, histopathological examination and nomenclature, and in the published author's choices of what information to provide in their papers. Results are reported in the CPDB for tests in rats, mice, hamsters, dogs, and nonhuman primates, and are based on the most positive result among all experiments for each sex-species. The DSSTox CPDBAS (all species) file incorporates data from the CPDB Summary Tables for the full list of over 1500 chemical substances tested in at least one species.
A chemical is classified within the CPDB as mutagenic, i.e. "active", in the Salmonella assay if it was evaluated overall as either "mutagenic" or "weakly mutagenic" by Zeiger [Zeiger, E. (1997) Genotoxicity Database. In: Gold and Zeiger, Eds. Handbook of Carcinogenic Potency and Genotoxicity Databases. […]

Compound	outcome
O=[N+]([O-])C(Cl)(Cl)Cl	active
CN(CCCl)CCCl	active
